Data: US7015211B2 (Yale University, priority 2003, dated 2006)

Chains of the proteins cited; added tags and fusions are not shown.
UniProt P06211, whole entry: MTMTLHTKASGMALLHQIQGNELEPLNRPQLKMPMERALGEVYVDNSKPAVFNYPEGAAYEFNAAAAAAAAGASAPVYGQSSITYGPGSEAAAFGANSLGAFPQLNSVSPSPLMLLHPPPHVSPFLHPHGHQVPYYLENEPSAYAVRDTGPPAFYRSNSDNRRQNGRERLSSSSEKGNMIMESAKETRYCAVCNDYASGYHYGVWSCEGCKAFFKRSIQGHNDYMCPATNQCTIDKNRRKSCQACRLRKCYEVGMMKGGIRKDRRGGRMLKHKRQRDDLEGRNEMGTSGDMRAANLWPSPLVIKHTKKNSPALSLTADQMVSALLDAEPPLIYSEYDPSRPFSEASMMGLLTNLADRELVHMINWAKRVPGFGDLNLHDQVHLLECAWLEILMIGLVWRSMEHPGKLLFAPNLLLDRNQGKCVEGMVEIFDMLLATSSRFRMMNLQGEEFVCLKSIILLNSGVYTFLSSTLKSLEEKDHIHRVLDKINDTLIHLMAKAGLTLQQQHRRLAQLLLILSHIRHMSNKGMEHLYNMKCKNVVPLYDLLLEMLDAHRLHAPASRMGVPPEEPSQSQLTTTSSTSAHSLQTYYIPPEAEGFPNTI

Biological target: ER (ERα) in uterine cytosol (Rattus norvegicus, UniProt P06211)
Details: relative binding affinity, E2 = 100, 1 nM [3H]E2, ± SD

Q: Which “Estrogen Receptor (RBA)” value does the source give for “2′-Fluoroethyl(3,17β-dihydroxyestra-1,3,5(10)-trien-15α-yl)formate [E15-1,2F1]” here?
A: 8 ± 3
